Like-named read-outs stand apart in the source and are kept apart here.

Assay [1] deals with T1, human GALR3 (Homo sapiens, UniProt O60755).
T1 sequence (O60755 1-368): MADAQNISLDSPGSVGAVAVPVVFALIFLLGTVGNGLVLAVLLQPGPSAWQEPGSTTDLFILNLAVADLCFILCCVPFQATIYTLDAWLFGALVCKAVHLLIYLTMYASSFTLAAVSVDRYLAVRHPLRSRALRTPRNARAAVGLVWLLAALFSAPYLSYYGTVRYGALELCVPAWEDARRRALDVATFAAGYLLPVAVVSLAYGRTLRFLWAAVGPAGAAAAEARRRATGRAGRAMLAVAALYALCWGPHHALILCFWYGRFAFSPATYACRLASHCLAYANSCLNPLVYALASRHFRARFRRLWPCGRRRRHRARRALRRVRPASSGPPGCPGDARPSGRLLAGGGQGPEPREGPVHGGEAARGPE
Kind of assay: voltage clamp currents in Xenopus oocytes expressing hGALR3 and GIRK1/GIRK4. The note with it: read-out: EC50 (nM) Human GALR3 GIRK; Table 11.

Assay [2] addresses T1, human GALR3. Kind of assay: porcine 125I-galanin binding, LM(tk-) cells stably expressing human GALR3 (L-hGalR3-228).

On to human galanin, for which the EC50 in assay [1] stood at 7340 nM. For the substance porcine galanin, the inhibitory constant (Ki) in assay [2] (read-out: Ki (nM) Hum GALR3 LMTK− #8, Table 10) was 8.97 nM; in assay [2] (read-out: Ki (nM) Human L-hGalR3-228, Table 5, stable), 14 nM.

The values above are taken from patent publication US6368812B1 (priority 1996, dated 2002).
